# Measurements as given in article PMC3288053 (PLoS ONE, 2012).
# Sequences of proteins named here, by UniProt entry; tags and fusion partners are left off. Residues count along the entry.
# UniProt P37231, 230-505: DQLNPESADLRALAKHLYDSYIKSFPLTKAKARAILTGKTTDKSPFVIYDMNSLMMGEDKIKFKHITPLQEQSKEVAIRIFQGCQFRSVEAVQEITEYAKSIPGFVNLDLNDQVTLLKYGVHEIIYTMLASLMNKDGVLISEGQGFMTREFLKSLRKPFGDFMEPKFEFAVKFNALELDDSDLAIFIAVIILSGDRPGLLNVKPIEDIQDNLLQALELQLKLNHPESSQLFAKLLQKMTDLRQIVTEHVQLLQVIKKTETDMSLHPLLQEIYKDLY
# Biological target: T1, PPARγ-LBD/SRC1_613–773 interaction (Homo sapiens, UniProt P37231)
# T1 construct: pET15b-PPARγ-LBD202–477; His-tag (N); made in house; host or cells: E. coli BL21 (DE3)
# Test: SPR SRC1 recruitment assay
# Type: binding
# Details: 1 µM PPARγ-LBD incubated with compound 1 hour
structure (smiles),measurement,value
"CN(CCOc1ccc(CC2SC(=O)NC2=O)cc1)c1ccccn1 (stereo not shown) [rosiglitazone, reference compound]",effect on interaction between PPARγ-LBD and SRC1,greatly enhanced
